The values below come from patent publication US12558430B2, “Dual amylin and calcitonin receptor agonists and uses thereof” (Eli Lilly and Company, priority 2020, dated 2026).

One may read the EC50 as the concentration giving half of the maximal effect.

One series concerns the target T1, human CT receptor (Homo sapiens, UniProt P30988).
T1 sequence (P30988 25-474): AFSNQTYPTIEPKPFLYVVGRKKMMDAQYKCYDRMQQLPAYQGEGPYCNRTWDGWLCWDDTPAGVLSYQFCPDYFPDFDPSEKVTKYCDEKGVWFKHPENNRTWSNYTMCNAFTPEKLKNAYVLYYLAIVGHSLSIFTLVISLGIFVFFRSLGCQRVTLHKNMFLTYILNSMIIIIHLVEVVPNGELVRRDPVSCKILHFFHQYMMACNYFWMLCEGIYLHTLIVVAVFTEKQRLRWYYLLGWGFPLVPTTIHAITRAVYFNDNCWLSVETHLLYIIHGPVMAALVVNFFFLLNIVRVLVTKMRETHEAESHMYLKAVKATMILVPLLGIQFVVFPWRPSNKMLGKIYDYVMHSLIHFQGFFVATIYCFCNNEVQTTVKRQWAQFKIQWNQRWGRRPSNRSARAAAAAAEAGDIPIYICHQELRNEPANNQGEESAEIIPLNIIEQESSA
The experiment in a line: hCT cAMP functional assay (HTRF). Type of series: cell-based.

For series [1] the following is noted: in vivo; cited from earlier work.

Consider `CC[C@H](C)[C@H](NC(=O)[C@@H]1CCCN1C(=O)CNC(=O)[C@H](Cc1ccccc1)NC(=O)[C@H](CC(N)=O)NC(=O)[C@H](CC(N)=O)NC(=O)[C@H](CO)NC(=O)[C@H](CO)NC(=O)[C@H](Cc1c[nH]cn1)NC(=O)[C@@H](NC(=O)[C@H](CC(C)C)NC(=O)[C@H](Cc1ccccc1)NC(=O)[C@H](CC(N)=O)NC(=O)[C@H](C)NC(=O)[C@H](CC(C)C)NC(=O)[C@H](CCCNC(=N)N)NC(=O)[C@H](CCC(N)=O)NC(=O)[C@@H](NC(=O)[C@H](C)NC(=O)[C@@H]1CSSC[C@H](NC(=O)[C@@H](N)CCCCN)C(=O)N[C@@H](CC(N)=O)C(=O)N[C@@H]([C@@H](C)O)C(=O)N[C@@H](C)C(=O)N[C@@H]([C@@H](C)O)C(=O)N1)[C@@H](C)O)C(C)C)C(=O)N[C@@H](CC(C)C)C(=O)N1CCC[C@H]1C(=O)N1CCC[C@H]1C(=O)N[C@H](C(=O)N[C@@H](CC(N)=O)C(=O)N[C@H](C(=O)NCC(=O)N[C@@H](CO)C(=O)N[C@@H](CC(N)=O)C(=O)N[C@H](C(=O)N[C@@H](Cc1ccc(O)cc1)C(N)=O)[C@@H](C)O)C(C)C)[C@@H](C)O` [Pramlintide, reference compound], for which the concentration giving a half-maximal response (EC50) on human CT receptor turned out to be 2.32 ± 0.408 nM. Besides, the half-life entry in series [1] is recorded as “less than an hour”.
